The values below are quoted from earlier work in publication PMC3642142.

For series [1], the target named is L-selectin CLS transmembrane and cytoplasmic domains (Homo sapiens) (UniProt P14151). The following applies: cited from earlier work.
The target in series [2] is L-selectin LSEL15 peptide 311-325 (Homo sapiens) (UniProt P14151). The following applies: cited from earlier work.

Regarding Calmodulin (from UniProt P0DP23), the Kd in series [1] was 2000 nM; in series [2], 43 nM.

As a reminder, the Kd is the constant that tells how readily two partners part at equilibrium.
